This note sets out measurements from patent publication US20050136444A1 (priority 2003, published 2005).

Protein sequences, listed by entry. Tags and fused reporters are not part of them. Lines headed by an entry give the natural chain unless they say otherwise; changes in a name come on top.
UniProt P43116: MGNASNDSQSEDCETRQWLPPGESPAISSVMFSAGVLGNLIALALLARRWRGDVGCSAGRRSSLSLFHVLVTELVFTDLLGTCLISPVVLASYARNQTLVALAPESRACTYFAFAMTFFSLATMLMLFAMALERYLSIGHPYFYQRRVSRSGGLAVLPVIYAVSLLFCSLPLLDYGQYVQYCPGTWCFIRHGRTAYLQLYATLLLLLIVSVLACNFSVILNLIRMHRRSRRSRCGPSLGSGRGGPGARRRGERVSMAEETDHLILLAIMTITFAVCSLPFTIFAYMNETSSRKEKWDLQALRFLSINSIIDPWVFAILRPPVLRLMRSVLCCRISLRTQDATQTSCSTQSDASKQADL

This test concerns the target T1, EP2 receptor (Homo sapiens, UniProt P43116).
T1 construct: expressed in transfected cells; host or cells: HEK-T
Kind of test: cAMP response to PGE2 in HEK-T cells (EP2 co-transfection). The format is cell-based. The note with it: transfected HEK-T cells. The method, then:
An assay was established for measuring cAMP in transiently transfected cells that takes advantage of the fact that most cells that are transfected with one gene, can be simultaneously transfected with other genes. Thus, the NPFF1 and NPFF2 receptors were transfected along with a Gs-coupled receptor (EP2) at a ratio of 5:1. In un-transfected HEK-T cells there is no response to PGE2 (agonist for EP2) at doses as high 10 μM. […] Improvement was also detected in the sensitivity of the assay in some cases when cells are co-transfected with AC5 at ½-⅕ of the amount of DNA of the Gi-coupled receptor studied.

By pEC50 is commonly meant the EC50 on a negative log10 scale, so that one unit is a factor of ten.

The structures appear in SMILES notation. pEC50: −log10 of the molar value.

In turn, `CCCCC[C@H](O)/C=C/[C@H]1[C@H](O)CC(=O)[C@@H]1C/C=C\CCCC(=O)O` [PGE2] gave a pEC50 of 6.77.
